This experiment has as its target T1, murine gastrin releasing peptide receptor (mGRPr) (Mus musculus, UniProt P21729).
T1 construct: expressed in transfected cells; host or cells: human carcinoma lines A427, D54MG, U251MG, LS174T, WiDr, OVCAR-3, OV-4, SKOV3.ip1 infected with AdCMVGRPr; positive control: mouse fibroblast line BNR-11 stably expressing mGRPr
As to the kind of experiment: Live-cell binding of radiolabeled bombesin after AdCMVGRPr infection of human carcinoma cell lines. The note with it: all cell lines examined, AdCMVGRPr infected. As for the experimental part: Infections with recombinant adenoviruses were performed as previously described. Cells were harvested for radiolabeled binding assay 48 hours following adenoviral mediated infection by removal at 37° C. with 4 mM EDTA, 0.05% KCl. Detached cells were washed once with 0.1% BSA/PBS pH 7.2, enumerated and resuspended at 1×10^7 per ml. Each set of cells was aliquoted into 100 μl samples in duplicate polystyrene test tubes following the addition of 100,000 cpm (100 μl) of [^125 I]-Tyr-bombesin (DuPont NEN Research Products, Boston, Mass.). […] The solutions were mixed at room temperature for 1 hour, rinsed with PBE and centrifuged at 1700×g for 10 min. The supernatant was removed and the cells were counted in a gamma counter to determine the amount of bound radioactivity. Radioactivity bound was then plotted as the percent cpm bound to the cells versus the total amount of cpm added. The human ovarian carcinoma cell line SKOV3.ip1 expresses the cell surface receptor for erbB-2. Therefore, a non-internalizing monoclonal antibody (e21) against a cell surface epitope of erbB-2 was employed (provided by C. Richter King, Oncologix, Inc., Gaithersburg, Md.). The e21 antibody was ^125 I-labeled using the lodogen method and utilized in an in vitro live-cell binding assay with the SKOV3.ip1 cells. […] Cells were washed and bound radioactivity determined as described above. […]

Chains of the proteins cited; added tags and fusions are not shown. Lines headed by an entry give the natural chain unless they say otherwise; changes in a name come on top.
UniProt P21729: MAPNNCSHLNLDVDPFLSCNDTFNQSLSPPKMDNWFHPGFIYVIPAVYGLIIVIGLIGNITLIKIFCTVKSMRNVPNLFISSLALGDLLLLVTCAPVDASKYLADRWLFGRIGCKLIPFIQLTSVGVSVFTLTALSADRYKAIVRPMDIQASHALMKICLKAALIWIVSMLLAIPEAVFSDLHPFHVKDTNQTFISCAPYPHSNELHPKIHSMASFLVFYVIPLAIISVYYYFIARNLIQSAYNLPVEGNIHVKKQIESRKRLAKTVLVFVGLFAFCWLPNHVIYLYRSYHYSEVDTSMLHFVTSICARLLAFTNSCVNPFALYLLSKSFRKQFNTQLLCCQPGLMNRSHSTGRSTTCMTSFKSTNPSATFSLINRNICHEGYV

Turning to “^125 I-labeled bombesin: ^125 I-labeled bombesin”, the “radioactivity bound to the cells” value is given as 60-80%.

The values are drawn from patent US5902583A, “Genetic induction of receptors for targeted radiotherapy” (priority 1997, dated 1999).
